Laboratory results published in ChEMBL document CHEMBL2176989, “Design, synthesis, and pharmacological evaluation of piperidin-4-yl amino aryl sulfonamides: novel, potent, selective, orally active, and brain penetrant 5-HT₆ receptor antagonists” (J Med Chem, 2012).
pKi: −log10 of the molar value.

Protein sequences, listed by entry. Tags and fused reporters are not part of them.
UniProt P23975, whole entry, looked up: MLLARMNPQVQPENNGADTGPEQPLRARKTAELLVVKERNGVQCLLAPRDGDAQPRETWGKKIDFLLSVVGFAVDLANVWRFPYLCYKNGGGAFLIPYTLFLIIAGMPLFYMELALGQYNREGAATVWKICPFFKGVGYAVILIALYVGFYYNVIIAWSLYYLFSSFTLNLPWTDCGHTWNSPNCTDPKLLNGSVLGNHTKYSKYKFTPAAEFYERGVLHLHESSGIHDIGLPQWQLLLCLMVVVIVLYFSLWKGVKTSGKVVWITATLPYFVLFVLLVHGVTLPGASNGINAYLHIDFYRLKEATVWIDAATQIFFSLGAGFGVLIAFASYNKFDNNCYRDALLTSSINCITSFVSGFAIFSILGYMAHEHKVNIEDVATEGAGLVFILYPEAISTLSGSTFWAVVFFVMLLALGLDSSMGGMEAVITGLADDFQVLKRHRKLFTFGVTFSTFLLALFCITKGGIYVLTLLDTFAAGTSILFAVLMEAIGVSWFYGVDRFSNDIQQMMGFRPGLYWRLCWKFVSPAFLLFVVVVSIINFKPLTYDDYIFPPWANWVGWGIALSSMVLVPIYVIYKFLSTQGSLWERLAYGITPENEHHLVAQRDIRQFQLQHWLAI

Target: Sodium-dependent noradrenaline transporter (Homo sapiens, UniProt P23975)
Assay: Binding affinity to NOR transporter

SMILES	pKi
COc1ccc(S(=O)(=O)n2cc(C)c3cc(Cl)cnc32)cc1NC1CCN(C)CC1	5.67
COc1ccc(S(=O)(=O)n2cc(C)c3cc(Cl)ccc32)cc1NC1CCN(C)CC1	5.70
